Data taken from US8969542B2, “HPV polyepitope constructs and uses thereof” (priority 2007, dated 2015).

Assays:
Test in all cases: HLA class I competition binding assay using soluble HLA
HLA A0301 = target: T1, HLA A0301 (Homo sapiens, UniProt P04439)
T1 construct: endogenous in cells

HLA A3301 = HLA A3301 (Homo sapiens, UniProt P04439, A270S/D185E/E176V/E277Q/E87N/F33T/G231S/H175R/I121M/I218V/I322F/K168Q/K210R/L300P/L318F/M331R/P217A/Q86R/Q94H/R138Q/T323A/T345S/T97I/V358M/Y195H)
HLA A3101 = HLA A3101 (Homo sapiens, UniProt P04439, A270S/D185E/E176V/E277Q/F33T/G231S/G80R/H175R/I121M/I218V/I322F/K168Q/L300P/L318F/M331R/P217A/Q94H/R138Q/T323A/T345S/T97I/V358M)
HLA A6801 = HLA A6801 (Homo sapiens, UniProt P04439, A269V/D185E/E176V/E277Q/E87N/F33Y/G231S/I121M/I166T/I218V/L180W/L300P/L318F/N151K/P208A/P217A/Q86R/R169H/T345S)

## CSCC[C@H](NC(=O)[C@H](CC(C)C)NC(=O)[C@H](CCSC)NC(=O)[C@@H](NC(=O)[C@@H](N)CCSC)C(C)C)C(=O)N[C@@H](CC(C)C)C(=O)N[C@H](C(=O)N[C@@H](CCCNC(=N)N)C(=O)N[C@@H](Cc1ccccc1)C(=O)N[C@@H](CCCCN)C(=O)O)C(C)C [compound 55]
HLA A0301
  IC50: 0.01 µM
HLA A3301
  IC50: 0.02 µM
HLA A3101
  IC50: 0.053 µM
HLA A6801
  IC50: 0.01 µM
